Hits are enriched below; roughly 13% of the tested compounds scored in any of these assays.
JMJD2E inh: blocks human JMJD2E demethylase activity; B2RXH2; JMJD2E catalytic domain, FDH-coupled NADH fluorescence (FDH is formaldehyde dehydrogenase); Potency, µM (series often up to 57.1 µM), without a hit: at the highest dose activity change, negative = inhibition, most hits filed as inhibitors; actives 1.6% (n = 230,000); AID 2147; active means well fitted inhibition curve with a large enough effect, not every such curve was filed as active; inconclusive means small, poorly fitted or top-dose-only effect, or another doubt; inactive means no such curve, though single readings can be large or run the other way;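 further: potency means the concentration at half of the fitted maximal effect; 0% = wells with enzyme and -100% = buffer wells without enzyme; nearly all actives have a fitted effect of over 50% in size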
miR-21 FLuc: raises the signal of a miR-21 reporter | HeLa miR-21 FLuc reporter, luciferase, 48 h | 340,000 tested, under 10 active | Potency, µM (titrated, usually from 38.3 µM), inactives show at the highest dose reporter change, positive = more light; active = well fitted rising curve with a large enough effect; inconclusive = small, poorly fitted or top-dose-only effect; inactive = no such curve, though single readings can be large or run the other way;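 further: % of control where 0% means no effect; miR-21 action dims this reporter so a rising signal means less miR-21 action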
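Using DMEM plus 10% FBS, HeLa miR-21-FLuc cells are incubated with test compounds (final up to about 40uM) for 48 hours; firefly luciferase signal is then imaged following reagent-mediated lysis.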
ALDH1A1 inh: inhibitors of human aldehyde dehydrogenase 1A1; P00352; Purified ALDH1A1, NADH fluorescence, propionaldehyde substrate; Potency, µM (titrated, usually from 75.3 µM), inactives show at the highest dose activity, negative = inhibition, most hits filed as inhibitors; actives 7.3% (n = 220,000); AID 1030; active means well fitted inhibition curve with a large enough effect, not every such curve was filed as active; inconclusive means small, poorly fitted or top-dose-only effect, or another doubt; inactive means no such curve, though single readings can be large or run the other way;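 further: potency means the concentration at half of the fitted maximal effect; plate controls were no enzyme wells and a reference inhibitor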
G9a block: inhibitors of human histone lysine methyltransferase G9a. G9a H3K9 monomethylation, AlphaScreen, 2 h. AID 504332. Potency, µM (titrated, usually from 102 µM), for the others: at the highest dose activity, negative = inhibition, actives largely listed as inhibitors. actives 8.8% (n = 350,000). Q96KQ7; further: potency means the concentration at half of the fitted maximal effect; on the % scale 0 is the no-effect control and ±100 the full control effect; nearly all actives have a fitted effect of over 75% in size
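AlphaScreen read-out: biotin-H3K9 peptide (500 nM) methylation by 20 nM enzyme with 20 uM SAM, 2 h at room temperature after 15 min compound preincubation; anti-monomethyl H3K9 antibody plus donor/acceptor beads, 10 min dark.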
Lamin A splicing: changes lamin A minigene splicing in HeLa cells. Potency, µM (top dose mostly 46.1 µM), inactives show at the highest dose ratio change, negative = inhibition, actives largely listed as inhibitors. AID 1487. HeLa LMNA splicing GFP/RFP minigene ratio, 48 h. actives 0.01% (n = 200,000); active means well fitted inhibition curve with a large enough effect in the signal ratio, with a control signal flat, not every such curve was filed as active; inconclusive means small, poorly fitted or top-dose-only effect, or effect the other way, or a change in a side signal; the % refers to the signal ratio; further: potency means the concentration at half of the fitted maximal effect; on the % scale 0 is the no-effect control and ±100 the full control effect
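Read-out is the ratio of GFP to DsRed2 object intensity, acquired by 488 nm laser-scanning cytometry on HeLa lamin A-EGFP minigene reporter cells. Compound incubation 48 hrs at 37 °C in Opti-MEM with 2% FBS; DMSO 0.5% final.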
Sfp inh: inhibitors of Bacillus subtilis Sfp phosphopantetheinyl transferase. Q9F4F7. Biochemical Sfp PPTase activity, qHTS. Potency, µM, for the others: max response, negative = inhibition, most hits filed as inhibitors. actives 3.5% (n = 310,000). AID 1490; active means well fitted inhibition curve with a large enough effect; inconclusive means small, poorly fitted or top-dose-only effect, or another doubt; inactive means no such curve, though single readings can be large or run the other way;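 further: the enzyme is Sfp with the accession as filed and its product quenches rhodamine fluorescence; potency means the concentration at half of the fitted maximal effect; 0% = enzyme reaction without inhibitor and -100% = no enzyme wells; top concentration of the series not given in the record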
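After 15 min at room temperature with compound, 15 nM Sfp received 5 uM rhodamine-CoA plus 12.5 uM BHQ-2-ybbR (50 mM Hepes pH 7.6, 10 mM MgCl2). Rate came from the fluorescence difference over 30 min, ex 525/em 598 nm.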
Numbers without * were called inactive; ? = inconclusive; . = not tested or not shown; [ ] = another dose, or the depositor's remark. Unless noted, the call rests on the fitted dose curve; in most records, active means well fitted curve in the direction sought with a large enough effect; inconclusive means small, poorly fitted or top-dose-only effect, or another doubt; inactive means no such curve, though single readings can be large; an effect the other way counts as inactive or inconclusive.

cpd	JMJD2E inh	miR-21 FLuc	ALDH1A1 inh	SMILES	G9a block	Lamin A splicing	Sfp inh
1	.	4%	.	CC(C)c1ccc(NC(=O)C2Cc3ccccc3N2C(=O)c2ccccc2)cc1 (stereo unspecified)	21%[59 µM]	?	.
2	?	-5%	13µM*	O=C1CC(c2ccco2)CC(O)=C1C=NCCN1CCNCC1 (stereo unspecified)	6%[12.7 µM]	0%	-6%
3	?	-3%	-13%	CCOc1ccc(N=CC2=C(O)CC(c3ccco3)CC2=O)cc1 (stereo unspecified)	4%[59 µM]	-1%	5%
4	10µM*	3%	-7%	O=C1CC(c2ccco2)CC(O)=C1C=NCC1CCNCC1 (stereo unspecified)	?	-6%	-4%
5	-13%	-2%	?	O=C1CC(c2ccco2)CC(O)=C1C=Nc1cc(Cl)cc(Cl)c1 (stereo unspecified)	10µM*	3%	40µM*
6	.	3%	.	COc1ccc(NC(=O)CS(=O)(=O)c2cn(CC(=O)N3CCOCC3)c3ccccc23)cc1OC	35µM*	.	56µM*
7	.	-16%	.	COc1ccc(CCNC(=O)C(=O)c2cn(CC(=O)N3CCOCC3)c3ccccc23)cc1OC	-4%	.	-2%
8	7%	-4%	-13%	COc1ccc(CCNC(=O)CS(=O)(=O)c2cn(CC(=O)N3CCOCC3)c3ccccc23)cc1OC	50µM*	?	-10%
9	-5%	1%	32µM*	COCCNC(=O)Cn1cc(C(=S)N2CCOCC2)c2ccccc21	35µM*	1%[46 µM]	32µM*
10	.	3%	.	NC(=O)c1ccc(NC(=O)CS(=O)(=O)c2cn(CC(=O)N3CCCC3)c3ccccc23)cc1	25µM*	.	-23%
11	.	.	.	O[C@@H]1CO[C@H]2C1OC[C@@H]2O (stereo partly specified)	.	.	-3%
12	.	-1%	.	COC(=O)c1cc(NC(=O)CCc2c(C)nc3c(c(C)nn3C(C)(C)C)c2C)cc(C(=O)OC)c1	0%[59 µM]	.	.
13	.	.	.	CN(CC(=O)Nc1ccccc1C(=O)NC1CC1)Cc1cccs1	7%[59 µM]	.	.
14	-8%	0%	8.9µM*	COc1ccc(NS(=O)(=O)c2ccc3oc4ccccc4c3c2)cn1	-33%[12.7 µM]	?	56µM*
15	.	-5%	.	CCn1c2ccccc2c2cc(CN3CCN(Cc4ccccc4C)CC3)ccc21	1.8µM*	.	.
16	?	-1%	2%	CCn1c2ccccc2c2cc(CN3CCN(S(C)(=O)=O)CC3)ccc21	0%[59 µM]	?	-6%
17	.	17%	.	CCn1c2ccccc2c2cc(CN3CCN(Cc4ccc(Cl)cc4)CC3)ccc21	0.5µM*	.	.
18	.	28%	.	CCn1c2ccccc2c2cc(CN3CCN(Cc4ccccc4F)CC3)ccc21	2µM*	.	.
19	.	.	.	CCCCOc1ccc(C(=O)NCC(=O)N2CC(C)CC(C)C2)cc1 (stereo unspecified)	-3%[2.33 µM]	.	.
20	.	-43%	.	CS(=O)(=O)c1ccc2nc(NC(=O)c3ccccc3Br)sc2c1	50µM*	.	0%
21	1%	-11%	3.2µM*	CS(=O)(=O)c1ccc2nc(NC(=O)Oc3ccccc3)sc2c1	-15%	-3%	12%
22	.	-60%	.	Cc1nnc(NC(=O)c2cc3ccccc3o2)s1	26%	.	15%
23	.	.	.	O=C(Nc1nnc(C2CC2)s1)c1cc2ccccc2o1	14µM*	.	.
24	?	-17%	.	CS(=O)(=O)c1ccc2sc(NC(=O)c3cc4ccccc4o3)nc2c1	40µM*	.	-22%
25	.	1%	.	CCCSCCCNC(=O)C1CCN(c2nc3ccccc3nc2C(F)(F)F)CC1	-15%[59 µM]	.	.
26	?	5%	-4%	COc1cc(OC)cc(C(=O)N[C@H](C(=O)Nc2nc3ccc(S(C)(=O)=O)cc3s2)C(C)C)c1	40µM*	.	-8%
27	.	4%	.	CC(C)(Oc1ccc(Cl)cc1)C(=O)Nc1nc2ccc(S(C)(=O)=O)cc2s1	11µM*	.	.
28	?	-21%	?	COc1ccc(C(=O)Nc2nc3ccc(S(C)(=O)=O)cc3s2)cc1	?	7%	1%
29	4%	-46%	14µM*	CC(C)(C)SCCNC(=O)/C=C/c1cccc([N+](=O)[O-])c1	3%[59 µM]	-7%	-19%
30	6%	-3%	22µM*	O=C(/C=C/c1cccc([N+](=O)[O-])c1)NCCSCc1ccc(Cl)cc1	-51%[59 µM]	?	2%
31	.	.	.	CCC(C)[C@H]1CNCCN1CCc1cccc(F)c1 (stereo partly specified)	-13%[2.33 µM]	.	.
32	.	-17%	.	COc1cccc(Oc2cc(Cl)nc(N)n2)c1	77%	.	19%
33	5%	-20%	-4%	COc1ccc(Oc2cc(Cl)nc(N)n2)cc1	50µM*	?	16%
34	?	14%	?	CC(C)CCNC(=O)C(CC(C)C)N(Cc1ccc2c(c1)OCO2)C(=O)c1snc(C(N)=O)c1N (stereo unspecified)	17%	?	25%
35	5%	4%	14µM*	O=C(COc1cccnc1[N+](=O)[O-])Nc1ccc(Cl)c(S(=O)(=O)N2CCOCC2)c1	2%	.	0%
36	9%	0%	3.2µM*	CN1CCN(S(=O)(=O)c2ccc(NC(=O)COc3ccccc3Cl)cc2)CC1	0%	.	12%
37	4%	-4%	22µM*	O=C(COC(=O)CCC(=O)c1cccs1)Nc1cc(S(=O)(=O)N2CCOCC2)ccc1Cl	-33%[59 µM]	-3%	8%
38	5%	3%	?	O=C(COC(=O)c1cnc(Cl)c(Cl)c1)Nc1ccc(S(=O)(=O)N2CCCC2)cc1	-6%	1%	-8%
39	-3%	-3%	?	O=C(COC(=O)c1ccc(Cl)nc1)Nc1ccc(S(=O)(=O)N2CCCC2)cc1	45µM*	-4%	-5%
40	-7%	.	-1%	CC(C)C[C@@H](CC(=O)N[C@H](CC(=O)N[C@@H]1CCCC[C@H]1C(=O)N[C@H](CC(=O)N[C@@H](CCC(=O)O)CC(=O)O)Cc1c[nH]c2ccccc12)C(C)C)NC(=O)[C@@H]1CCCC[C@H]1N	.	.	7%
41	.	-4%	.	O=C(COc1ccccc1Cl)Nc1ccc(S(=O)(=O)N2CCOCC2)cc1	-10%	.	-8%
42	0%	-6%	-1%	COc1cc(S(=O)(=O)N2CCOCC2)ccc1NC(=O)COC(=O)CC12CC3CC(CC(C3)C1)C2	1.4µM*	3%	5%
43	.	0%	.	COc1ccccc1OCC(=O)Nc1ccc(S(=O)(=O)N2CCOCC2)cc1	79µM*	.	-3%
44	.	9%	.	Cc1cc(C)c(OCC(=O)Nc2ccc(S(=O)(=O)N3CCOCC3)cc2)c(C)c1	45µM*	.	17%
45	.	.	.	CC(=O)c1cccc(N2C(=O)CC(N3CCN(S(=O)(=O)c4ccc(Cl)cc4)CC3)C2=O)c1 (stereo unspecified)	6%[59 µM]	.	.

High-throughput results from PubChem.
